Results taken from article PMC7029632, “Routing Nanomolar Protein Cargoes to Lipid Raft‐Mediated/Caveolar Endocytosis through a Ganglioside GM1‐Specific Recognition Tag” (Advanced Science, 2020).

Tested on: HeLa cells
Experiment: Cytotoxicity by bioimpedance measurement
Design: species or system human

For `NCCCC[C@H](NC(=O)[C@H](Cc1ccc(O)cc1)NC(=O)[C@@H](N)Cc1c[nH]c2ccccc12)C(=O)N[C@@H](Cc1ccc(O)cc1)C(=O)N[C@@H](Cc1c[nH]c2ccccc12)C(N)=O` [WYKYW], the “signs of cytotoxicity during the cell-based experiments” value was “no signs of cytotoxicity”.
